{"sequences": {"note": "The chains behind the UniProt entries cited, without tags or fusion partners.", "UniProt P34949, whole entry": "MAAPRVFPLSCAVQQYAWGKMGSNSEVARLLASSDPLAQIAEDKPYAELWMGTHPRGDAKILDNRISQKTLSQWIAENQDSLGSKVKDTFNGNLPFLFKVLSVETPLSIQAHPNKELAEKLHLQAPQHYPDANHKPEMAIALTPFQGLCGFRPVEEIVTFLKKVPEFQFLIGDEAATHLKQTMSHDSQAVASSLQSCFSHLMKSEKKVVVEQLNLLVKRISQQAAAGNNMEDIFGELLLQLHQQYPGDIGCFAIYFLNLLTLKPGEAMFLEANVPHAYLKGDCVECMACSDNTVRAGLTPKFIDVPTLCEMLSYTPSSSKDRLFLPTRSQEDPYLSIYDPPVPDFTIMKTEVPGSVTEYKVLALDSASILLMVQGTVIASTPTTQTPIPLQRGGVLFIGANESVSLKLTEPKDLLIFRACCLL"}, "source": "PubChem BioAssay AID1220", "about": "(Sanford-Burnham Center for Chemical Genomics, 2008)", "note": "The entries are a selection whose mix differs from that of the whole data set. Some tests of the compounds listed are not included; inactive here does not mean inactive elsewhere. Calls of active or inactive are those of the source. Cut-off read from the data, not from the text of the source: active = inhibition above about 50%; inactive = the rest.", "data": [{"molecular_target": "Mannose-6-phosphate isomerase (Homo sapiens) (UniProt P34949)", "assay": "human PMI inhibitors, high substrate, primary screen, biochemical, fluorescence intensity, high mannose 6-phosphate (AID 1220)", "settings": "recombinant PMI enzyme, coupled fluorescence intensity; at 20 µM; active compounds read high", "values": [{"smiles": "CN(C)c1cccc(C(=O)NCC2(N(C)C)CCCCC2)c1", "inhibition": "inactive: 10.3%"}, {"smiles": "O=C(OC1CN2CCC1CC2)C(CO)(c1ccccc1)c1ccccc1", "note": "(centres undefined)", "inhibition": "inactive: 0.7%"}, {"smiles": "COc1cccc(C(=O)NCC2(N3CCCCC3)CCCCC2)c1", "inhibition": "inactive: 7.9%"}, {"smiles": "CCN1CCCC(OC(=O)C2(O)c3ccccc3C=Cc3ccccc32)C1", "note": "(centres undefined)", "inhibition": "inactive: -4.4%"}, {"smiles": "C=CCN1CCN(CCOC(=O)C(O)(c2ccccc2)c2ccccc2)CC1", "inhibition": "inactive: -13.9%"}, {"smiles": "Cc1ccccc1C(=O)NCC1(N2CCCCC2)CCCCC1", "inhibition": "inactive: 2%"}, {"smiles": "CN(C)C1CCCC1OC(=O)C(O)(c1ccccc1)c1ccccc1", "note": "(centres undefined)", "inhibition": "inactive: -11.3%"}, {"smiles": "CC(C)N1C(=O)CC2(CCN(CCOC(=O)C(O)(c3ccccc3)c3ccccc3)CC2)C1=O", "inhibition": "inactive: -7.5%"}, {"smiles": "O=C(NCC1(N2CCCCC2)CCCCC1)c1cc([N+](=O)[O-])ccc1Cl", "inhibition": "inactive: -12.7%"}]}]}
